Measurements from EP4653451A1, “POLYPEPTIDE COMPOUND AND USE THEREOF” (Chengdu New Radiomedicine Technology Co., Ltd., priority 2023, dated 2024).

The chains behind the UniProt entries cited, without tags or fusion partners.
UniProt P27487, whole entry: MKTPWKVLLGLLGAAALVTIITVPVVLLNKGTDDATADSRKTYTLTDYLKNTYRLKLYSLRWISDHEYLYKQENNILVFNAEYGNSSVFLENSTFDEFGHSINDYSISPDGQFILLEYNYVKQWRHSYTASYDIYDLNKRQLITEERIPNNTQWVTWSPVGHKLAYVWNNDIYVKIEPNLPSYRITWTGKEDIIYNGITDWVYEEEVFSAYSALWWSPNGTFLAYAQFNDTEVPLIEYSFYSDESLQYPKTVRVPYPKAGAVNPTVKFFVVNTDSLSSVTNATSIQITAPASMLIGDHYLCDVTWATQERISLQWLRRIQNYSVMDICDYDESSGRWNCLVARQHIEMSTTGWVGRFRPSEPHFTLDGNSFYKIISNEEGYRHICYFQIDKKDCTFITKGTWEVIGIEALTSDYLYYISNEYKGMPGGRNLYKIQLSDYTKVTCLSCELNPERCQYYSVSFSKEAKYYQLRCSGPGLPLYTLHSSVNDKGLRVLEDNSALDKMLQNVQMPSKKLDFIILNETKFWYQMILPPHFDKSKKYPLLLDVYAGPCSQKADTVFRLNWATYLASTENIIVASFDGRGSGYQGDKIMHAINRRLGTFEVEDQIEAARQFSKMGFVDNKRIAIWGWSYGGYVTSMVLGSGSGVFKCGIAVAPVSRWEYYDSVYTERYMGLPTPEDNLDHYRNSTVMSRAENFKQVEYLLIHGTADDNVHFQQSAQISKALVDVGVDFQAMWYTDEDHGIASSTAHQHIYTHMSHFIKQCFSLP

Columns and labels:
[1] = molecular target: T1, human recombinant DPP4 protein (Homo sapiens, UniProt P27487); test: Inhibitory activity against DPP4 protease activity (H-Gly-Pro-AMC fluorescence); assay type: biochemical
T1 construct: purchased Acrobiosystems DP4-H5211
Experimental: The human recombinant DPP4 protein (Acrobiosystems, DP4-H5211) was formulated into a 125 pM working solution with an assay buffer (20 mM Tris-HCl, 100 mM NaCl), and the DPP4 substrate (H-Gly-Pro-AMC.HBr (LEONBIO, 115035-46-6)) was diluted to a 250 µM DPP4 substrate working solution with the assay buffer. 40 µl of DPP4 working solution and 20 µl of compounds at different concentrations (4-fold dilution) were taken, then 40 µl of DPP4 substrate working solution was added, and the mixture was uniformly mixed on a shaker at room temperature for 1 min. The uniformly mixed mixture was reacted at room temperature in the dark for 90 min. Reading was made by microplate reader at excitation and emission wavelengths of 380 nm and 460 nm. The original data was saved, and the IC50 value of the compound was obtained by analyzing the data with Graphpad PRISM.

[2] = molecular target: T2, human recombinant FAP protein (Homo sapiens, UniProt Q12884); test: Inhibitory activity against FAP protease activity (Z-Gly-Pro-AMC fluorescence); assay type: biochemical; settings: read-out: FAP IC50; 125 pM FAP working solution, 90 min at room temperature
T2 construct: purchased Acrobiosystems FAP-H82Q6
T2 sequence (Q12884 1-760): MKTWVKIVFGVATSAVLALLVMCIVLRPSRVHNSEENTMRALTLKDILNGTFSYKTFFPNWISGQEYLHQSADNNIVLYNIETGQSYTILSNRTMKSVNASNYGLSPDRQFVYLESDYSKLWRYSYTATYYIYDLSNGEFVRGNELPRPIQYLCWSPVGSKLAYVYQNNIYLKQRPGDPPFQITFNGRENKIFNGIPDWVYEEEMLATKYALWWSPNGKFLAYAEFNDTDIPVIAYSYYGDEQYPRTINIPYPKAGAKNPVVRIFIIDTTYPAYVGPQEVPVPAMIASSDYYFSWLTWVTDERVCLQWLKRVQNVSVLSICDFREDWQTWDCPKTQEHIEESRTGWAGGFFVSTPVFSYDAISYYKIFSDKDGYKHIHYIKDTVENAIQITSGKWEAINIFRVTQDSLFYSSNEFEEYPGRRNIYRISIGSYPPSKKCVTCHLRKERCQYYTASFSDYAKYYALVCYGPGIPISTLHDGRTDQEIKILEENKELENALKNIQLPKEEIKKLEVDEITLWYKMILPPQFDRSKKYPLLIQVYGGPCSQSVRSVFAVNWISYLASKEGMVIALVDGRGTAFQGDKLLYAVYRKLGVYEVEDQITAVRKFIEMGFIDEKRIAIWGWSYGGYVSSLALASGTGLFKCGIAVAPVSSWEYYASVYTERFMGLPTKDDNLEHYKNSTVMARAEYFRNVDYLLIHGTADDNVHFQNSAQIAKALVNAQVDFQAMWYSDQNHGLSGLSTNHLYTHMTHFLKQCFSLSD
Experimental: The human recombinant FAP protein (Acrobiosystems, FAP-H82Q6) was diluted to a 125 pM FAP working solution with an assay buffer (50 mM Tris-HCl, 1 M NaCl, 1 mg/mL BSA, pH 7.5), and the FAP substrate (Z-Gly-Pro-AMC (LEONBIO, 68542-93-8)) was diluted to a 150 µM substrate working solution with the assay buffer. 40 µl of FAP working solution and 20 µl of compounds at different concentrations (4-fold dilution) were taken, then 40 µl of substrate working solution was added, and the mixture was uniformly mixed on a shaker at room temperature for 1 min. The uniformly mixed mixture was reacted at room temperature in the dark for 90 min. The fluorescence value Ex = 380 nm/Em = 460 nm was read by using a microplate reader. The original data was saved, and the IC50 value of the compound was obtained by using the original data or the Inhibition% via calculation and analyzing the data with Graphpad PRISM.

Row | Substance | IC50 ([1]; read-out: DPP4 IC50; 125 pM DPP4 working solution, 90 min at room temperature) [nM] | IC50 [2] [nM] | IC50 ([1]; 125 pM DPP4 working solution, 90 min at room temperature; read-out: DPP4 IC50) [nM]
1 | Hex-Cys-Pro-Pro-Thr-Gln-Phe-Cys-CH2NH-cyclopentacarboxylic acid (Cys bridge TBMB (DOTA-AET)) trifluoroacetate [Compound 14] | > 10000 | 0.28 | –
2 | Hex-Cys-Pro-Pro-Thr-Gln-Phe-Cys-CH2NHAc (Cys bridge TBMB (DOTA-AET)) trifluoroacetate [Compound 10] | – | 0.23 | > 10000

Like-named read-outs stand apart in the source and are kept apart here.
